## Measured affinities in a library of Ab-91 heavy chain variants

Values reported by Engelhart et al. 2022, doi:10.1038/s41597-022-01779-4 (FLAb copy).

All variants were tested on one target, the spike HR2 peptide PDVDLGDISGINAS (SARS-CoV-2).

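Variants in AAYL51 differ from the parent at up to three CDR positions; double and triple changes were sampled at random. The scFvs were displayed on barcoded MATa yeast, the peptide on MATalpha yeast. After mating in shaken culture at 30 °C for 16 h, diploids were selected and their barcode pairs sequenced. Each replicate has its own calibration line, from reference interactions of the BCL2 family. There are three technical replicates.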

Parent scFv Ab-91: VL joined to VH by a (GGGGS)3 linker. Changes lie in the heavy chain CDRs alone.
VL: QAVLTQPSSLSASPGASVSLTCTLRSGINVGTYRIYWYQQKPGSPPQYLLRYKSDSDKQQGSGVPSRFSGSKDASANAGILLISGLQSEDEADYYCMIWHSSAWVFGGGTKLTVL
VH: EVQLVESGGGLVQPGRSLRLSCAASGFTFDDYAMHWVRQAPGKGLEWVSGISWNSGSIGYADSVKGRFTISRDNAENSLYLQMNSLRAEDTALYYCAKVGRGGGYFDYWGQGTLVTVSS

The parent's heavy chain CDRs are GFTFDDYAMH, GISWNSGSIGYADSVK, VGRGGGYFDY; each variant's own CDRs replace them letter for letter.
All variants listed here change G102 of the VH, counted from its first residue.
Scale: log10 of Kd in nM, estimated from mating counts; low values are strong binders.
"ND" marks a missing value. The strain was present, yet no cells mated with the target were sequenced in that replicate, which points to weak or no binding.

| CDR-H1 | CDR-H2 | CDR-H3 | log10 Kd, replicates |
|---|---|---|---|
| GFTFDDYAMH | GISWNSGSIGEADSVK | VGREGGYFDY | 2.08 2.34 3.08 |
| GFTFDDYAMW | GISWSSGSIGYADSVK | VGRVGGYFDY | ND ND ND |
| GFWFDDYAMH | GISWNSGSIGYADSVK | VGRVGGYFDY | 2.02 1.75 1.71 |
| GFTFDDKAME | GISWNSGSIGYADSVK | VGRNGGYFDY | ND ND 3.71 |
| GFTFDDYAMH | GISWNSGSIGLADSVK | VGRWGGFFDY | ND ND ND |
| GFTFDDYAMH | GISWYSGFIGYADSVK | VGRDGGYFDY | ND ND 2.83 |
| GFTFDDYAMH | GISWNSGSIGYADHVD | VGRYGGYFDY | 3.77 4.33 3.83 |
| GFTFDDYAMH | GISWNSSSIGQADSVK | VGRKGGYFDY | ND ND ND |
| GFTFDDYAMH | GISWNSGSIGYADAVP | VGREGGYFDY | 5.06 ND ND |
| GFTFDDYAMH | GISWNSGSIGMADSVK | VGRAGGYFDR | 3.39 ND ND |
| GFTFLDYAMH | GISWNSGSIGYADSVM | VGRNGGYFDY | ND ND ND |
| GFTFDDYAMH | GQSWNSGSVGYADSVK | VGRIGGYFDY | ND ND ND |
| GFTFDDYAMH | GISWNSGSIGYADSKK | VGRSGGYFDY | ND ND ND |
| GFTFWDYAMH | GISWNSGSIGYSDSVK | VGRHGGYFDY | 3.79 ND ND |
| GFTFDDYAMH | GQSWNSISIGYADSVK | VGREGGYFDY | ND ND 4.34 |
| RFTFDDYAMH | GISWNSGSIGYADSVK | VGRQYGYFDY | ND 4.00 ND |
| GFTFDDYAMH | GISWNSGSIGYADSVK | VFRSGGYFKY | 2.86 2.40 1.97 |
| GFTFDDYAMH | KISWNSGSIGYADKVK | VGRSGGYFDY | ND ND ND |
| GFTFDDYAMH | GISWESGSIGYADSVE | VGREGGYFDY | 3.39 ND ND |
| GFTFDDYAMH | GIKWNSISIGYADSVK | VGRAGGYFDY | ND ND ND |
| GFTFDDYAMH | GIYWNSGSIGYADSVK | NGRDGGYFDY | 4.23 ND ND |
| GFTFDDYAMH | GISWNSGSIGYADSVK | EGRYWGYFDY | 1.98 2.32 2.19 |
| GFTFDFYAMH | GISWNSPSIGYADSVK | VGRIGGYFDY | ND 4.55 ND |
| GFTFDDYSMH | GISWNSGSIGYADSVK | VGRPGGYFDY | 3.35 3.88 3.67 |
| GFTFDDYAMQ | GISWNSGSIGYADSVK | VGRYGGYFDY | ND ND ND |
| GFTFNDCAMH | GISWNSGSIGYADSVK | VGRTGGYFDY | 4.25 ND ND |
| GFSFDDYAMY | GISWNSGSIGYADSVK | VGRSGGYFDY | ND ND ND |
| GFTFDDYAMH | GISWNSGSIGYADSVK | VGQTGGWFDY | 2.08 2.35 1.58 |
| GYTFDDYAMH | GISWNSGSIGYADSVK | VGRDGGFFDY | ND ND ND |
| GFTFDDYAMH | GISWNSGSYGYADSVK | VGRYGGNFDY | ND ND ND |
| GFTFDDYAMH | GISWNSGSIGYADSVK | VFRHGGYFSY | ND ND ND |
| GFTFDDYAYH | GDSWNSGSIGYADSVK | VGRHGGYFDY | 4.24 4.83 4.10 |

The closing 4 entries, repeated:

| CDR-H1 | CDR-H2 | CDR-H3 | log10 Kd, replicates |
|---|---|---|---|
| GYTFDDYAMH | GISWNSGSIGYADSVK | VGRDGGFFDY | ND ND ND |
| GFTFDDYAMH | GISWNSGSYGYADSVK | VGRYGGNFDY | ND ND ND |
| GFTFDDYAMH | GISWNSGSIGYADSVK | VFRHGGYFSY | ND ND ND |
| GFTFDDYAYH | GDSWNSGSIGYADSVK | VGRHGGYFDY | 4.24 4.83 4.10 |

In this assay the parent's reference entry averaged 1.86; its copy inside this library read 0.88.
Three control strains display no target. For library AAYL51, 21% of the pairings with them gave a signal, with a median of 4.54 and one signal in twenty below 3.26, so weak values seen in few replicates may be background.